Assay results published in ChEMBL document CHEMBL2413050, “Design and synthesis of conformationally restricted capsaicin analogues based in the 1, 3, 4-thiadiazole heterocycle reveal a novel family of transient receptor potential vanilloid 1 (TRPV1) antagonists” (Eur J Med Chem, 2013).

By UniProt entry, the sequences of proteins in these tests, tags left out.
UniProt O35433, whole entry: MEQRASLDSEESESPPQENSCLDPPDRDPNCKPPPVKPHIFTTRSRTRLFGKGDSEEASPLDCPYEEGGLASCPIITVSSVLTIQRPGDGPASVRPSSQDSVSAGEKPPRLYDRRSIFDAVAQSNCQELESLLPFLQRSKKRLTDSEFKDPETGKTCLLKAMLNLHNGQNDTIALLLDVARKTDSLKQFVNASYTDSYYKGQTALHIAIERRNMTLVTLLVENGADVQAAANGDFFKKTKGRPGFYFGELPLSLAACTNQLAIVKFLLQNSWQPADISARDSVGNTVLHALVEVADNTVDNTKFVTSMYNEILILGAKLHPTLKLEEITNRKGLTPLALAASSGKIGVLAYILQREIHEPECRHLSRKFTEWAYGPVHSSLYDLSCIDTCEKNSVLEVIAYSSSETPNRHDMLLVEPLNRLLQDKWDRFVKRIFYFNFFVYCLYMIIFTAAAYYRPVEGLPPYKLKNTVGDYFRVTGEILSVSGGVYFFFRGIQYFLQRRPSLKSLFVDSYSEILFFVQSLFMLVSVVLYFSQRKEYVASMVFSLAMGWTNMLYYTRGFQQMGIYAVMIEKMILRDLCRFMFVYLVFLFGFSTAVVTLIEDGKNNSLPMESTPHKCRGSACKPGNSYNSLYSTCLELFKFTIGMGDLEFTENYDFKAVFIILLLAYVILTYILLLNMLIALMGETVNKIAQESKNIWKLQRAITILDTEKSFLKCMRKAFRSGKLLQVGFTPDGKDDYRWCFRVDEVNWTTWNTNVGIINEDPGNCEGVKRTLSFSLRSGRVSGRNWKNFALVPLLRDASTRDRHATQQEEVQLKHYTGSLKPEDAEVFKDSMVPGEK

Key:
[1] = biological target: T1, Transient receptor potential cation channel subfamily V member 1 (Rattus norvegicus, UniProt O35433); assay: Antagonist activity at rat TRPV1 receptor expressed in HEK293T cells assessed as inhibition of temperature-induced calcium flux after 30 mins by Fluo-4AM based fluorescence assay; assay type: cell-based, HEK-293T
[2] = biological target: T1, Transient receptor potential cation channel subfamily V member 1; assay: Antagonist activity at rat TRPV1 receptor expressed in HEK293T cells assessed as inhibition of capsaicin-induced calcium flux after 30 mins by Fluo-4AM based fluorescence assay; assay type: cell-based, HEK-293T

## CC(C)(C)c1ccc(NC(=O)N2CCN(c3ncccc3Cl)CC2)cc1
[1]
  IC50: 2.12 nM
[2]
  IC50: 4.86 nM
